The text below walks through data of paper PMC4074120, “Discovery of Novel GPVI Receptor Antagonists by Structure-Based Repurposing” (PLoS ONE, 2014).

pIC50: −log10 of the molar value.

The assay has as its target T1, GPVI (platelet glycoprotein VI) (Homo sapiens, UniProt Q9HCN6).
T1 construct: gene GP6; native receptor on washed human platelets
T1 sequence (Q9HCN6 21-339): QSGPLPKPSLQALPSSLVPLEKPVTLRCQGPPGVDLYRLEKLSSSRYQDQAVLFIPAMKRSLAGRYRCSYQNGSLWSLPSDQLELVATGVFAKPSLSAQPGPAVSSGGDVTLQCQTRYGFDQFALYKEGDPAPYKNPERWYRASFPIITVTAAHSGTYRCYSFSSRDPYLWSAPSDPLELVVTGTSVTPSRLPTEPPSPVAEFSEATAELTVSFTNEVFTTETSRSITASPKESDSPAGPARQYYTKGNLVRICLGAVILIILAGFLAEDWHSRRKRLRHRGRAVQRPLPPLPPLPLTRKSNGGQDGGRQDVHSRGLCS
The assay can be described thus: Inhibition of CRP-XL/collagen-induced Ca2+ release and aggregation in washed human platelets; rightward shift of CRP-XL curve. In kind it is cell-based. The following applies: read-out: Ca^2+ RELEASE / CRP.

Take `CCCCc1nc(Cl)c(CO)n1Cc1ccc(-c2ccccc2-c2nn[nH]n2)cc1` [losartan]: the pIC50 was 5.40.
